# Experimental data reported in PubChem BioAssay AID493248 (Broad Institute, 2011).
# Amino acid sequences for entries named in this document (tags omitted).
# UniProt P55789, whole entry: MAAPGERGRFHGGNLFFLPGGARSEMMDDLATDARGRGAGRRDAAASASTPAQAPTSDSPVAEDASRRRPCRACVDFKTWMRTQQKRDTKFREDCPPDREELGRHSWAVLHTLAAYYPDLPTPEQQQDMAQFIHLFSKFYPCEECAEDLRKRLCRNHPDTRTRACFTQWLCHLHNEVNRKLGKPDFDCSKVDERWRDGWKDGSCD
# Some of the results follow. Potency and affinity values are given separately. Records with an inconclusive call do not appear. How the calls were made is not given here.
# Target: FAD-linked sulfhydryl oxidase ALR (Homo sapiens) (UniProt P55789)
# Experiment: inhibitors of human ALR sulfhydryl oxidase, dose response, biochemical, H2O2 detection, luminescence, cherry-pick (AID 493248)
# Settings: purified ALR, DTT oxidation, H2O2 HRP-luminol luminescence; at 10 µM (top of the series)
row,SMILES,"activity change, negative = inhibition [%]"
1,CN(C)c1ccc(C(=O)NCC2(N3CCCCC3)CCCCC2)cc1,3.38
2,c1ccc(CN2CCC(Nc3ccccc3)CC2)cc1,28.7
3,COc1ccc(NC2CCN(C(=O)OC(C)(C)C)CC2)cc1,-18.2
